Measured values reported in US5280548A, “Emission based fiber optic sensors for pH and carbon dioxide analysis” (BOC Health Care, Inc., priority 1993, dated 1994).

Experiment: Photobleaching of dye
Assay type: physicochemical
Procedure: 1969, 31, 1-13], as a standard.
The desired operating life of the pH and carbon dioxide sensors is 72 hours. The ratiometric measurement of the base peak and the isosbestic point eliminates drift due to fluctuations in signal intensity. As the dye degrades due to photobleaching, however, the decrease in emission reaching the photodetector will yield a decrease in the signal to noise ratio. […] The photobleaching quantum yield was calculated to be 4.5×10^-5 using an Argon ion laser emitting at 514.5 nm. The amount of dye depletion was calculated using the photobleaching quantum yield and the amount of light absorbed by the dye at the sensor tip. The intensity of light reaching the end of the optical fiber was kept between 1 and 3 μW with a duty cycle of 50%. […] Little degradation in the system performance is expected.

Substance: seminaphthorhodaflor-1-carboxylate [SNARF-1C]
- loss of dye (20 mmol sodium bicarbonate, 37° C., argon ion laser 514.5 nm, 1.7 mW, 4.25 hours): 6%
- photobleaching quantum yield (Argon ion laser 514.5 nm): 4.5×10^-5
